According to patent US6485970B1, “Immunointeractive antibody” (priority 1997, dated 2002):

Cc1ccccc1 [toluene]
Reaction Time, Post Challenge Mean (17 cases, post challenge): 238.40 millisecs
Reaction Time (one patient, after toluene challenge): 219 ms
